Reference: PubChem BioAssay (NCI)
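Step 1: Grow cells in 96-well plates. Step 2: Expose to compound for 48 hours at 5 concentrations. Step 3: Interpolate endpoints linearly; if unreached, use highest concentration. GI50 marks 50% less growth. TGI denotes the concentration required for complete inhibition of growth.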

Tests used:
Test in all cases: DTP human tumour cell line panel, 48 h
[1] = test system: HCC-2998 colon
[2] = test system: HCT-15 colon
[3] = test system: HCT-116 colon
[4] = test system: OVCAR-8 ovarian
[5] = test system: MDA-MB-435
[6] = test system: OVCAR-4 ovarian
[7] = test system: HOP-62 NSCLC
[8] = test system: NCI-H226 lung
[9] = test system: HOP-92 NSCLC
[10] = test system: ACHN renal
[11] = test system: MDA-N
[12] = test system: PC-3 prostate
[13] = test system: SK-MEL-5 melanoma
[14] = test system: SK-MEL-28 melanoma
[15] = test system: 786-0 renal
[16] = test system: SNB-75 CNS
[17] = test system: K-562 leukemia
[18] = test system: A498 renal
[19] = test system: SF-268 CNS
[20] = test system: UACC-62 melanoma
[21] = test system: UO-31 renal
[22] = test system: NCI-H23 lung
[23] = test system: SK-MEL-2 melanoma
[24] = test system: UACC-257 melanoma
[25] = test system: SW-620 colon
[26] = test system: HL-60(TB) leukemia
[27] = test system: EKVX NSCLC
[28] = test system: NCI-H522 lung
[29] = test system: MCF7 breast
[30] = test system: HT29 colon
[31] = test system: T-47D breast
[32] = test system: NCI-H460 lung
[33] = test system: IGROV1 ovarian
[34] = test system: RXF 393 renal
[35] = test system: NCI-H322M lung
[36] = test system: OVCAR-5 ovarian
[37] = test system: SNB-19 CNS
[38] = test system: RPMI-8226 leukemia
[39] = test system: MALME-3M melanoma
[40] = test system: CAKI-1 renal
[41] = test system: OVCAR-3 ovarian
[42] = test system: MDA-MB-231 breast
[43] = test system: BT-549 breast
[44] = test system: COLO 205 colon
[45] = test system: DU-145 prostate
[46] = test system: SN12C renal
[47] = test system: U251 CNS
[48] = test system: KM12 colon
[49] = test system: M14 melanoma
[50] = test system: SF-295 CNS
[51] = test system: SK-OV-3 ovarian
[52] = test system: LOX IMVI melanoma
[53] = test system: A549 NSCLC
[54] = test system: NCI/ADR-RES ovarian
[55] = test system: TK-10 renal
[56] = test system: MOLT-4 leukemia
[57] = test system: HS 578T breast

`CP1(=O)OCCCO1` was tested, and the GI50 [1] was greater than 100 µM, the TGI [1] was greater than 100 µM and the GI50 [2] was greater than 100 µM. It also gave a TGI [2] greater than 100 µM, a GI50 [3] greater than 100 µM and a TGI [3] greater than 100 µM. For the same molecule, the GI50 [4] was greater than 100 µM, the TGI [4] was greater than 100 µM and the GI50 [5] was greater than 100 µM. The TGI [5] was greater than 100 µM, the GI50 [6] was greater than 100 µM and the TGI [6] was greater than 100 µM. It also gave a GI50 [7] greater than 100 µM, a TGI [7] greater than 100 µM and a GI50 [8] greater than 100 µM. It also gave a TGI [8] greater than 100 µM, a GI50 [9] greater than 100 µM and a TGI [9] greater than 100 µM. The GI50 [10] was greater than 100 µM, the TGI [10] was greater than 100 µM and the GI50 [11] was greater than 100 µM. It also gave a TGI [11] greater than 100 µM, a GI50 [12] greater than 100 µM and a TGI [12] greater than 100 µM. For the same molecule, the GI50 [13] was greater than 100 µM, the TGI [13] was greater than 100 µM and the GI50 [14] was greater than 100 µM. For the same molecule, the TGI [14] was greater than 100 µM, the GI50 [15] was greater than 100 µM and the TGI [15] was greater than 100 µM. For the same molecule, the GI50 [16] was greater than 100 µM, the TGI [16] was greater than 100 µM and the GI50 [17] was greater than 100 µM. The TGI [17] was greater than 100 µM, the GI50 [18] was greater than 100 µM and the TGI [18] was greater than 100 µM. The GI50 [19] was greater than 100 µM, the TGI [19] was greater than 100 µM and the GI50 [20] was greater than 100 µM. The TGI [20] was greater than 100 µM, the GI50 [21] was greater than 100 µM and the TGI [21] was greater than 100 µM. The GI50 [22] was greater than 100 µM, the TGI [22] was greater than 100 µM and the GI50 [23] was greater than 100 µM. For the same molecule, the TGI [23] was greater than 100 µM, the GI50 [24] was greater than 100 µM and the TGI [24] was greater than 100 µM. For the same molecule, the GI50 [25] was greater than 100 µM, the TGI [25] was greater than 100 µM and the GI50 [26] was greater than 100 µM. It also gave a TGI [26] greater than 100 µM, a GI50 [27] greater than 100 µM and a TGI [27] greater than 100 µM. The GI50 [28] was greater than 100 µM, the TGI [28] was greater than 100 µM and the GI50 [29] was greater than 100 µM. For the same molecule, the TGI [29] was greater than 100 µM, the GI50 [30] was greater than 100 µM and the TGI [30] was greater than 100 µM. It also gave a GI50 [31] greater than 100 µM, a TGI [31] greater than 100 µM and a GI50 [32] greater than 100 µM. It also gave a TGI [32] greater than 100 µM, a GI50 [33] greater than 100 µM and a TGI [33] greater than 100 µM. It also gave a GI50 [34] greater than 100 µM, a TGI [34] greater than 100 µM and a GI50 [35] greater than 100 µM. The TGI [35] was greater than 100 µM, the GI50 [36] was greater than 100 µM and the TGI [36] was greater than 100 µM. It also gave a GI50 [37] greater than 100 µM, a TGI [37] greater than 100 µM and a GI50 [38] greater than 100 µM. The TGI [38] was greater than 100 µM, the GI50 [39] was greater than 100 µM and the TGI [39] was greater than 100 µM. The GI50 [40] was greater than 100 µM, the TGI [40] was greater than 100 µM and the GI50 [41] was greater than 100 µM. For the same molecule, the TGI [41] was greater than 100 µM, the GI50 [42] was greater than 100 µM and the TGI [42] was greater than 100 µM. The GI50 [43] was greater than 100 µM, the TGI [43] was greater than 100 µM and the GI50 [44] was greater than 100 µM. It also gave a TGI [44] greater than 100 µM, a GI50 [45] greater than 100 µM and a TGI [45] greater than 100 µM. It also gave a GI50 [46] greater than 100 µM, a TGI [46] greater than 100 µM and a GI50 [47] greater than 100 µM. It also gave a TGI [47] greater than 100 µM, a GI50 [48] greater than 100 µM and a TGI [48] greater than 100 µM. For the same molecule, the GI50 [49] was greater than 100 µM, the TGI [49] was greater than 100 µM and the GI50 [50] was greater than 100 µM. It also gave a TGI [50] greater than 100 µM, a GI50 [51] greater than 100 µM and a TGI [51] greater than 100 µM. It also gave a GI50 [52] greater than 100 µM, a TGI [52] greater than 100 µM and a GI50 [53] greater than 100 µM. It also gave a TGI [53] greater than 100 µM, a GI50 [54] greater than 100 µM and a TGI [54] greater than 100 µM. For the same molecule, the GI50 [55] was greater than 100 µM, the TGI [55] was greater than 100 µM and the GI50 [56] was greater than 100 µM. It also gave a TGI [56] greater than 100 µM, a GI50 [57] greater than 100 µM and a TGI [57] greater than 100 µM.
